According to PubChem BioAssay (NCI):
Where “and” joins values, the source holds several entries; their conditions need not be identical. Identical values can stand only once. This is a selection; strong and weak results do not stand in their true shares.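 Percent growth is the endpoint: 0 to 100 indicates growth inhibition (40 means 60% inhibition), 0 means no net growth, and negative values indicate cell death.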 Calls of active or inactive are those of the source. The calls were made as follows: active = growth percent below 10; inactive = the rest.

Experiments:
Test in all cases: NCI-60 one-dose screen, 48 h (100 = growth as untreated, 0 = no growth, -100 = all killed)
Conditions in all cases: 10 µM
NCI-H23 lung = system: NCI-H23 lung
NCI-H226 lung = system: NCI-H226 lung
NCI-H322M lung = system: NCI-H322M lung
HOP-62 NSCLC = system: HOP-62 NSCLC
NCI-H460 lung = system: NCI-H460 lung
HOP-92 NSCLC = system: HOP-92 NSCLC
NCI-H522 lung = system: NCI-H522 lung
A549/ATCC NSCLC = system: A549/ATCC NSCLC
786-0 renal = system: 786-0 renal
COLO 205 colon = system: COLO 205 colon
DU-145 prostate = system: DU-145 prostate
K-562 leukemia = system: K-562 leukemia
MALME-3M melanoma = system: MALME-3M melanoma
MDA-MB-231 breast = system: MDA-MB-231 breast
RXF 393 renal = system: RXF 393 renal
SF-268 CNS = system: SF-268 CNS
SF-295 CNS = system: SF-295 CNS
SF-539 CNS = system: SF-539 CNS
UACC-257 melanoma = system: UACC-257 melanoma
M14 melanoma = system: M14 melanoma

Measured: growth

CCC(C)(C)c1ccc(O)c(CN(CCCl)CCCl)c1
inactive: NCI-H23 lung 104% | NCI-H226 lung 106% | NCI-H322M lung 101% | HOP-62 NSCLC 103% | NCI-H460 lung 106% | HOP-92 NSCLC 109% | NCI-H522 lung 93.4% | A549/ATCC NSCLC 105% | 786-0 renal 90.6% | COLO 205 colon 107% | DU-145 prostate 108% | K-562 leukemia 106% | MALME-3M melanoma 109% | MDA-MB-231 breast 119% | RXF 393 renal 110% | SF-268 CNS 96.7% | SF-295 CNS 107% | SF-539 CNS 96.8% | UACC-257 melanoma 101% | M14 melanoma 89.1%

ClCCN(CCCl)Cc1ccc2c(c1)OCO2
inactive: NCI-H23 lung 80.9% | NCI-H226 lung 67.5% | NCI-H322M lung 108% | HOP-62 NSCLC 66.8% | NCI-H460 lung 56.4% | HOP-92 NSCLC 62.1% | NCI-H522 lung 84.5% | A549/ATCC NSCLC 82.3% | 786-0 renal 96.2% | COLO 205 colon 87% | DU-145 prostate 102% | K-562 leukemia 89.4% | MALME-3M melanoma 100% | MDA-MB-231 breast 78.5% | RXF 393 renal 83.5% | SF-268 CNS 82.8% | SF-295 CNS 98.2% | SF-539 CNS 66.7% | UACC-257 melanoma 91.9% | M14 melanoma 89.2%

Fc1ccc(CCN(CCCl)CCCl)cc1
inactive: NCI-H23 lung 115% | NCI-H226 lung 96.7% | NCI-H322M lung 104% | HOP-62 NSCLC 106% | NCI-H460 lung 104% | HOP-92 NSCLC 104% | NCI-H522 lung 70.7% | A549/ATCC NSCLC 97.8% | 786-0 renal 104% | COLO 205 colon 112% | DU-145 prostate 112% | K-562 leukemia 110% | MALME-3M melanoma 98.6% | MDA-MB-231 breast 110% | RXF 393 renal 100% | SF-268 CNS 108% | SF-539 CNS 101% | UACC-257 melanoma 92.9% | M14 melanoma 101%

N#CC1(Nc2ccc(Cl)cc2)CCN(Cc2ccccc2)CC1
inactive: NCI-H23 lung 79.2% | NCI-H226 lung 61.1% | NCI-H322M lung 80.3% | HOP-62 NSCLC 86.1% | NCI-H460 lung 47.2% | HOP-92 NSCLC 74.8% | NCI-H522 lung 55.7% | A549/ATCC NSCLC 55.2% | 786-0 renal 59.6% | COLO 205 colon 66.4% | DU-145 prostate 90.9% | K-562 leukemia 31.5% | MALME-3M melanoma 95.1% | MDA-MB-231 breast 41.6% | RXF 393 renal 98.8% | SF-268 CNS 73.8% | SF-295 CNS 39.6% | SF-539 CNS 77.9% | UACC-257 melanoma 77.1% | M14 melanoma 23.2%

O=c1[nH]cc(CN(CCCl)CCCl)c(=O)[nH]1
inactive: NCI-H23 lung 99% | NCI-H226 lung 98.3% | NCI-H322M lung 96.2% | HOP-62 NSCLC 99.9% | NCI-H460 lung 106% | HOP-92 NSCLC 102% | NCI-H522 lung 97.6% | A549/ATCC NSCLC 99.7% | 786-0 renal 102% | COLO 205 colon 106% | DU-145 prostate 107% | K-562 leukemia 107% | MALME-3M melanoma 99.7% | MDA-MB-231 breast 98.8% | RXF 393 renal 113% | SF-268 CNS 103% | SF-295 CNS 100% | SF-539 CNS 104% | UACC-257 melanoma 100% | M14 melanoma 100%

CCOc1ccc(N(CCCl)CCCl)cc1
inactive: NCI-H23 lung 68.4% | NCI-H226 lung 75% | NCI-H322M lung 99.9% | HOP-62 NSCLC 73.7% | NCI-H460 lung 22.6% | HOP-92 NSCLC 55.8% | NCI-H522 lung 57.3% | A549/ATCC NSCLC 51.4% | 786-0 renal 52.8% | COLO 205 colon 70.1% | DU-145 prostate 46.1% | K-562 leukemia 83.9% | MALME-3M melanoma 72.5% | MDA-MB-231 breast 99.1% | RXF 393 renal 64.7% | SF-268 CNS 43% | SF-539 CNS 32.8% | UACC-257 melanoma 72.8% | M14 melanoma 69.1%

O=C(O)CCCCc1ccc(N(CCCl)CCCl)cc1
inactive: NCI-H23 lung 85.6% | NCI-H226 lung 93.5% | NCI-H322M lung 103% | HOP-62 NSCLC 85.5% | NCI-H460 lung 56.8% | HOP-92 NSCLC 87.1% | NCI-H522 lung 83.8% | A549/ATCC NSCLC 73.3% | 786-0 renal 92.4% | COLO 205 colon 89.1% | DU-145 prostate 91.3% | K-562 leukemia 91.3% | MALME-3M melanoma 112% | MDA-MB-231 breast 102% | RXF 393 renal 95.5% | SF-268 CNS 73.5% | SF-295 CNS 90.8% | SF-539 CNS 85.2% | UACC-257 melanoma 101% | M14 melanoma 87.7%

NC(Cc1cccc(N(CCCl)CCCl)c1)C(=O)O (configuration not stated)
inactive: NCI-H23 lung 100% and 101% | NCI-H226 lung 86.4% and 89% | NCI-H322M lung 106% and 97.8% | HOP-62 NSCLC 104% and 95.9% | NCI-H460 lung 67.5% and 87% | HOP-92 NSCLC 90% and 94.6% | NCI-H522 lung 88.1% and 93.5% | A549/ATCC NSCLC 101% and 98.9% | 786-0 renal 107% and 105% | COLO 205 colon 98.5% and 103% | DU-145 prostate 104% and 106% | K-562 leukemia 120% and 104% | MALME-3M melanoma 88.9% and 87.7% | MDA-MB-231 breast 90.1% and 94.4% | RXF 393 renal 83.3% and 97.8% | SF-268 CNS 91.2% and 94.6% | SF-539 CNS 99.1% and 100% | UACC-257 melanoma 101% and 98.5% | M14 melanoma 110% and 94.6%
